For two compounds, IC50 results are on record in patent US9206184B2, “Disubstituted benzothienyl-pyrrolotriazines and uses thereof” (BAYER INTELLECTUAL PROPERTY GmbH, priority 2011, dated 2015).

This test concerns Human umbilical vein endothelial cells (HUVEC). As to the kind of experiment: Inhibition of growth factor-mediated cell proliferation (hFGF-2, HUVEC). Particulars: 72 h, read-out: hFGF-2 mediated HUVEC proliferation, IC50 [nM]. The format is cell-based.

Regarding `COCc1c(-c2cc3cc(C)cc(OC)c3s2)c2c(N)ncnn2c1CN[C@@H]1CCNC1=O` [Example 4, (3R)-3-({[4-Amino-6-(methoxymethyl)-5-(7-methoxy-5-methyl-1-benzothiophen-2-yl)pyrrolo-[2,1-f][1,2,4]triazin-7-yl]methyl}amino)pyrrolidin-2-one], the IC50 came to 17.5 nM.

In the case of `CCOCc1c(-c2cc3cc(C)cc(OC)c3s2)c2c(N)ncnn2c1CN1CCNC(=O)C1` [Example 5, 4-{[4-Amino-6-(ethoxymethyl)-5-(7-methoxy-5-methyl-1-benzothiophen-2-yl)pyrrolo[2,1-f]-[1,2,4]triazin-7-yl]methyl}piperazin-2-one], the IC50 is 5.3 nM.
